Protein sequences, listed by entry. Tags and fused reporters are not part of them.
UniProt P31749, whole entry: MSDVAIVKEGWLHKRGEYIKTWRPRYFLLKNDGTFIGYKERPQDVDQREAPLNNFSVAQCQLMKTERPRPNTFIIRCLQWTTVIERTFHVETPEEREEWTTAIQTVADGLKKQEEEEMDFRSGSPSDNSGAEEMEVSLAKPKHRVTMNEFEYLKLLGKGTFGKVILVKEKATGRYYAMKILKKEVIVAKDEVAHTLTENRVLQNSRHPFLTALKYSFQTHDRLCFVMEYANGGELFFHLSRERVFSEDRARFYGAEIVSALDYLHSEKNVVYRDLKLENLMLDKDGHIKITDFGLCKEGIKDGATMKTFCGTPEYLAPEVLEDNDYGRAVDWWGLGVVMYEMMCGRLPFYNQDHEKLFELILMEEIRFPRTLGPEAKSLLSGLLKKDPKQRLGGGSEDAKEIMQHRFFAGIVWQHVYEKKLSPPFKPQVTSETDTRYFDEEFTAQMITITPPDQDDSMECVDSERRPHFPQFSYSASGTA

According to patent publication US7528132B2, “Kinase inhibitors” (Schering Corporation, priority 2005, dated 2009):

Molecular target: Akt1 (Homo sapiens, UniProt P31749)
Test: Akt1 kinase assay (33P phosphorylation of biotinylated peptide, Flash plates)
Type: biochemical
Details: read-out: IC50 rating (AKT1 inhibition)
Excerpt: The assay described below measures the phosphorylation of a biotinylated peptide by active recombinant Akt1 and other kinase isoforms. The biotinylated peptide contains a consensus sequence derived from Akt substrate Gsk3 (Glycogen synthase kinase 3). The ^33P-labeled peptide substrate was captured by streptavidin-coated Flash plates.
Active recombinant Akt1 was expressed in Sf9 insect cells and purified as described by Kumar et al., Biochim. Biophys. Acta. Jun. 15, 2001, 1526(3), 257-268. Biotinylated peptide of the sequence Bio-ahx-RPRAASF was purchased from Syn Pep (Dublin, Calif., USA).
Cloning and Expression of Human Akt1 Sf9 Cells
Human Akt1 cDNA was amplified from a marathon-ready human lung cDNA library (Clonetech) using nested oligo primers as described below. The first round of amplification was carried out using the following primers; Akt1F1 ([…]) and Akt1R1 (TCCATC […]) and for the second round amplification, the primers of the following sequence were used; Akt1F2 (GGATCCTCGG […]) and AKT1R2 (GGTACCATCGTC […]). The PCR product was subcloned into pCRScript plasmid as a BamHI/KpnI fragment and the sequence of the cDNA was confirmed by DNA sequencing. This plasmid was used as a template for reamplification of Akt1 using appropriate primers for subcloning into pBlueBaHis2B into BamH1/EcoRI sites to generate an in frame fusion to (His)6 tag and an anti-Xpress antibody epitope tag at the N-terminus. This construct was sequenced to verify the junction sequences and used for generating a recombinant baculovirus. Growth of the recombinant virus, amplification and determination of viral titer were carried out according to the instructions from the manufacturer (InVitrogen, CA).
Purification of Akt1 from Sf9 Cells
Viral stocks were used to infect large scale Sf9 cells at a multiplicity of infection (MOI) of 2.5. Cells were maintained at 27° C. for 60 h and okadaic acid was added to the cultures to a concentration of 50 nM. Cells were harvested 4 h hours later by centrifugation at 1200 rpm for 30 min followed by freezing at −80° C. until further use. All purification steps were carried out at 4° C. Whole cell pellets were suspended in buffer A (20 mM sodium phosphate buffer pH 7.8, 500 mM NaCl, 1 mM sodium vanadate, 5 mM sodium fluoride, 40 mM β-glycerophosphate, 10 mM imidazole and protease inhibitor cocktail) and lysed using a microfluidizer. The cell extract was centrifuged at 16,000×g for 10 min to remove the debris and directly loaded onto Ni-NTA Superflow resin using a FPLC pump operated at 1 ml/min. The column was washed once with buffer A, once with wash buffer B (20 mM sodium phosphate pH 6.0, 1 mM sodium vanadate, 5 mM sodium fluoride and protease cocktail) and once with wash buffer B containing 0.05% Tween-20 followed by washing with buffer A until OD260 returned to basal level. Proteins were eluted with buffer A containing 200 mM imidazole. Fractions were analyzed by electrophoresis on 10% denaturing polyacrylamide gels and fractions containing 85% pure protein band at 60 KDa were pooled and dialyzed against buffer C (20 mM Tris-HCl pH 7.5, 0.5 mM EDTA,-2 mM DTT, 145 mM NaCl, 0.1 mM sodium vanadate, 5 mM sodium fluoride, 10 mM, β-glycerophosphate and 20% glycerol). Purified protein was stored as aliquots at −80° C. Protein concentrations were determined using BCA protein assay reagent A (Catalog #23228). To examine the identity of the proteins, 2 μg of purified protein was electrophoresed on SDS-polyacrylamide gels and stained with coomassie blue dye or transferred to nitrocellulose membrane and probed with anti-Akt and anti-phospho-specific Akt antibodies using enhanced chemiluminescence (ECL) reagent according to the protocol described by the manufacturer (Amersham).
The kinase assay was performed in 96 well plates at room temperature. Assay solutions and plates were preincubated at room temperature for 5 min. […]

Row | SMILES | IC50
1 | CCC[C@H]1CN(c2nc(-c3ccc4[nH]nc(C)c4c3)nnc2N)CCN1 | < 100 nM
2 | Cc1n[nH]c2ccc(-c3nnc(N(Cc4ccccc4-c4ccccc4)Cc4ccccc4-c4ccccc4)c(N4CCN[C@@H](C(C)C)C4)n3)cc12 | > 1000 nM
3 | Cc1n[nH]c2ccc(-c3nnc(NCc4cccc(-c5ccccc5)c4)c(N4CCN[C@@H](C(C)C)C4)n3)cc12 | 100 to 1000 nM
4 | Cc1n[nH]c2ccc(-c3nnc(N(Cc4cccc(F)c4)Cc4cccc(F)c4)c(N4CCN[C@@H](C(C)C)C4)n3)cc12 | > 1000 nM
5 | Cc1n[nH]c2ccc(-c3nnc(N(Cc4cccc(Br)c4)Cc4cccc(Br)c4)c(N4CCN[C@@H](C(C)C)C4)n3)cc12 | > 1000 nM
6 | Cc1n[nH]c2c(C)cc(-c3nncc(N4CCN[C@@H](Cc5ccccc5)C4)n3)cc12 | > 1000 nM
7 | Cc1n[nH]c2ccc(-c3nnc(NCc4ccccc4-c4ccccc4)c(N4CCN[C@@H](C(C)C)C4)n3)cc12 | < 100 nM

Continued, values first:

Row | IC50 | SMILES
8 | 100 to 1000 nM | Cc1n[nH]c2ccc(-c3nnc(NCc4cccc([N+](=O)[O-])c4)c(N4CCN[C@@H](C(C)C)C4)n3)cc12
9 | < 100 nM | Cc1n[nH]c2ccc(-c3nnc(NC(C)c4ccccc4)c(N4CCN[C@@H](C(C)C)C4)n3)cc12 (stereo partly drawn)
10 | < 100 nM | COc1cccc(CNc2nnc(-c3ccc4[nH]nc(C)c4c3)nc2N2CCN[C@@H](C(C)C)C2)c1
11 | 100 to 1000 nM | Cc1n[nH]c2ccc(-c3nnc(N)c(N4CCN[C@H](Cc5ccccc5)C4)n3)cc12
12 | < 100 nM | Cc1n[nH]c2ccc(-c3nnc(NCc4cccc(F)c4)c(N4CCN[C@@H](C(C)C)C4)n3)cc12
13 | < 100 nM | Cc1n[nH]c2ccc(-c3nnc(NCc4cccc(Br)c4)c(N4CCN[C@@H](C(C)C)C4)n3)cc12
14 | < 100 nM | COc1ccccc1CNc1nnc(-c2ccc3[nH]nc(C)c3c2)nc1N1CCN[C@@H](C(C)C)C1
15 | 100 to 1000 nM | Cc1n[nH]c2ccc(-c3nnc(N)c(N4CCN[C@H](C(C)C)C4)n3)cc12
16 | < 100 nM | Cc1n[nH]c2ccc(-c3nnc(NCc4ccccc4Cl)c(N4CCN[C@@H](C(C)C)C4)n3)cc12
17 | 100 to 1000 nM | Cc1n[nH]c2ccc(-c3nnc(N(Cc4ccccc4Cl)Cc4ccccc4Cl)c(N4CCN[C@@H](C(C)C)C4)n3)cc12
18 | 100 to 1000 nM | CNC1CCN(c2nc(-c3ccc4[nH]nc(C)c4c3)nnc2NCc2ccccc2)C1 (stereo not drawn)
